Tested on: human red blood cells
Assay: Hemolytic assay
Format: cell-based
Conditions: 1.25 μg/mL, with and without 0.002% polysorbate 80
Experimental: The hemolytic activity of the O-acyl isopeptide prodrugs and the corresponding teixobactin analogues were evaluated with human red blood cells (FIGS. 9A to 9H). Triton X-100 and melittin were used as positive controls and vancomycin and water (vehicle) were used as negative controls in the hemolysis assays. […] In contrast, 0.002% polysorbate 80 had no effect on the hemolytic activity of Lys10-teixobactin and Leu10-teixobactin and little effect on the corresponding O-acyl isopeptide prodrug analogues. When the hemolysis assays were performed with teixobactin, no hemolysis was observed up to 100 μg/mL without polysorbate 80 and modest hemolysis (4%) at 100 μg/mL with 0.002% polysorbate 80.
Preparation of Phosphate-Buffered Saline (PBS) Buffers. A 10×PBS buffer was prepared by dissolving 8.9 g of Na2HPO4, 1.2 g KH2PO4, 40 g NaCl, and 1 g KCl in 500 mL of 18 MO deionized water. The solution was stirred until the buffer salts were completely dissolved. The pH of the 10×PBS buffer was adjusted to 7.4 using either 1 M HCl or 1 M NaOH and was subsequently sterile filtered. To create a 1×PBS buffer, the 10×PBS buffer was diluted 10-fold using 18 MO deionized water. Another 1×PBS buffer was made, supplemented with 0.002% polysorbate 80.
Preparation of human red blood cells. Whole human blood was stored in a 4° C. in K2 EDTA to prevent coagulation. […]
Hemolytic assay readout. […]

Question: For CC[C@H](C)[C@H](NC(=O)CN)C(=O)NCC(=O)N[C@@H](C)C(=O)N[C@H](C(=O)N[C@@H](CC(C)C)C(=O)N[C@@H](CCCCN)C(=O)N[C@H](C(=O)N[C@@H](CC(C)C)C(=O)N[C@H](C(=O)N[C@H](C(=O)NCC(=O)N[C@@H](CC(C)C)C(=O)N1CCC[C@H]1C(=O)N[C@@H](C)C(=O)N[C@@H](CC(C)C)C(=O)N[C@H](C(=O)N[C@@H](CO)C(=O)N[C@@H](Cc1c[nH]c2ccccc12)C(=O)N[C@H](C(=O)N[C@@H](CCCCN)C(=O)N[C@@H](CCCNC(=N)N)C(=O)N[C@@H](CCCCN)C(=O)N[C@@H](CCCNC(=N)N)C(=O)N[C@@H](CCC(N)=O)C(=O)N[C@@H](CCC(N)=O)C(N)=O)[C@@H](C)CC)[C@@H](C)CC)[C@@H](C)O)[C@@H](C)O)C(C)C)C(C)C [melittin], which hemolysis is on record?
Answer: 26-30%
